The results in this text go back to patent publication US9499482B2, “Pyrrolone or pyrrolidinone melanin concentrating hormone receptor-1 antagonists” (BRISTOL-MYERS SQUIBB COMPANY, priority 2012, dated 2016).

Sequences of proteins named here, by UniProt entry; tags and fusion partners are left off.
UniProt Q99705, whole entry E4Q/A5T: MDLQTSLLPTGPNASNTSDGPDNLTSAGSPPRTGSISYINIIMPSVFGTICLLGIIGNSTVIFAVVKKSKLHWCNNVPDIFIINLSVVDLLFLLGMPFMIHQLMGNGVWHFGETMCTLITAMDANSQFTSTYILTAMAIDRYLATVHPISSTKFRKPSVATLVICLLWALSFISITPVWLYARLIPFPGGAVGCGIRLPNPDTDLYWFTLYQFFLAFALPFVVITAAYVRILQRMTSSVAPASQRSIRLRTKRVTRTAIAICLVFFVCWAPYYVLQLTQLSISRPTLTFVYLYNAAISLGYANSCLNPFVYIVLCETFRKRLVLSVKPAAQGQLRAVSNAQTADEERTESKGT

Molecules are shown by their SMILES.

The assay deals with human melanin concentrating hormone receptor (MCHR1), mutated (E4Q, A5T) hMCHR1 (Homo sapiens (Human), UniProt Q99705, A5T/E4Q). The experiment in a line: Radioligand binding assay for assessment of MCHR1 activity ([125I]-MCH competition, HEK-293 membranes). As to conditions: membranes from HEK-293 cells expressing mutated (E4Q, A5T) hMCHR1; 0.06-0.1 nM [Phe13,[125I]Tyr19]-MCH. The protocol:
Radioligand Binding Assay for Assessment of MCHR1 Activity
An in vitro binding assay was used to determine the compound Ki value or ability to antagonize binding of a peptide agonist to the human melanin concentrating hormone receptor (MCHR1). Membranes from stably transfected HEK-293 cells expressing a mutated (E4Q, A5T) hMCHR1 receptor were prepared by dounce homogenization and differential centrifugation. […] Filters were dried, 0.05 mL MicroScint 20 was added to each well and radioactivity was subsequently quantified by scintillation counting on a TOPCOUNT® microplate scintillation counter (Packard). Inhibitory constants were determined by nonlinear least squares analysis using a four parameter logistic equation.
In the case of `COc1cc(N2CC[C@H](Oc3ccc(C4CC4)cc3)C2=O)ccc1OCCN1CC(C)(O)C1` [Example 40], the affinity corresponds to a Ki of 3 nM. This counts as single-digit nanomolar.
In the case of `CCc1cc(N2CC[C@H](Oc3ccc(C4CC4)cc3)C2=O)ccc1OCCN1CCCC1` [Example 41, S-3-(4-Cyclopropylphenoxy)-1-(3-ethyl-4-(2-(pyrrolidin-1-yl)ethoxy)phenyl)pyrrolidin-2-one] it was 1.6 nM.
With `CCc1cc(N2CC[C@H](Oc3ccc(C4CC4)cc3)C2=O)ccc1OCCN1CC2(COC2)C1` [Example 45], the affinity corresponds to a Ki of 3 nM. This Ki is about 1.9-fold higher than that of the compound before.
In the case of `CCc1cc(N2CC[C@H](Oc3ccc(C4CC4)cc3)C2=O)ccc1OCCN1CCC(F)(F)C1` [Example 46], the Ki stood at 15 nM.
Regarding `CCc1cc(N2CC[C@H](Oc3ccc(C4CC4)cc3)C2=O)ccc1OCCN1CCOCC1` [Example 47], the Ki was found to be 4 nM.
`CCc1cc(N2CC[C@H](Oc3ccc(C4CC4)cc3)C2=O)ccc1OCCN(C)CCO` [Example 48] displayed a Ki of 1.2 nM.
In the case of `CCc1cc(N2CC[C@H](Oc3ccc(C4CC4)cc3)C2=O)ccc1OCCN1CC[C@H](O)C1` [Example 49] it was 1.5 nM.
In turn, `CCc1cc(N2CC[C@H](Oc3ccc(C4CC4)cc3)C2=O)ccc1OCCN1CC[C@@H](O)C1` [Example 50] registered a Ki of 1.3 nM.
Next, `CCc1cc(N2CC[C@H](Oc3ccc(C4CC4)cc3)C2=O)ccc1OCCN1CCC[C@@H]1CO` [Example 51]: 1 nM; `CCc1cc(N2CC[C@H](Oc3ccc(C4CC4)cc3)C2=O)ccc1OCCN1CC(O)C1` [Example 53]: 3 nM.
Next, `CCc1cc(N2CC[C@H](Oc3ccc(C4CC4)cc3)C2=O)ccc1OCCN1CCC[C@H]1CO` [Example 54]: 1.5 nM.
Next, `CCc1cc(N2CC[C@H](Oc3ccc(C4CC4)cc3)C2=O)ccc1OCCNC1(C)COC1` [Example 55]: 5 nM; `CCc1cc(N2CC[C@H](Oc3ccc(C4CC4)cc3)C2=O)ccc1OCCN1C[C@@H](O)[C@@H](O)C1` [Example 56]: 3 nM; `CCc1cc(N2CC[C@H](Oc3ccc(C4CC4)cc3)C2=O)ccc1OCCN1CC[C@@H](OC)C1` [Example 57]: 0.8 nM.
`CCc1cc(N2CC[C@H](Oc3ccc(C4CC4)cc3)C2=O)ccc1OCCNC` [Example 59] registered a Ki of 3 nM.
Regarding `CCc1cc(N2CC[C@H](Oc3ccc(C4CC4)cc3)C2=O)ccc1OCCN` [Example 60], affinity was put at a Ki of 4 nM.
Next, `CCc1cc(N2CC[C@H](Oc3ccc(C4CC4)cc3)C2=O)ccc1OCCN1CCC[C@@H]1OC` [Example 61]: 1.4 nM; `CCc1cc(N2CC[C@H](Oc3ccc(C4CC4)cc3)C2=O)ccc1OCCN(C)C` [Example 62]: 2 nM; `Cc1cc(N2CC[C@H](Oc3ccc(C4CC4)cc3)C2=O)ccc1OCCN1CCCC1` [Example 63, S-3-(4-Cyclopropylphenoxy)-1-(3-methyl-4-(2-(pyrrolidin-1-yl)ethoxy)phenyl)pyrrolidin-2-one]: 1.2 nM.
In the case of `Cc1cc(N2CC[C@@H](Oc3ccc(C4CC4)cc3)C2=O)ccc1OCCN1CCCC1` [Example 64, R-3-(4-Cyclopropylphenoxy)-1-(3-methyl-4-(2-(pyrrolidin-1-yl)ethoxy)phenyl)pyrrolidin-2-one] it was 13 nM; in that of `COCCNCCOc1ccc(N2CC[C@H](Oc3ccc(C4CC4)cc3)C2=O)cc1C` [Example 66], 1.1 nM; in that of `CC(=O)N1CCN(CCOc2ccc(N3CC[C@H](Oc4ccc(C5CC5)cc4)C3=O)cc2C)CC1` [Example 67], 2 nM.
Take `CC(=O)N[C@@H]1CCN(CCOc2ccc(N3CC[C@H](Oc4ccc(C5CC5)cc4)C3=O)cc2C)C1` [Example 68]: the inhibitory constant (Ki) worked out at 1.2 nM.
On to `Cc1cc(N2CC[C@H](Oc3ccc(C4CC4)cc3)C2=O)ccc1OCCN1CC[C@@H](O)C1` [Example 69], for which the Ki stood at 1.1 nM.
In the case of `Cc1cc(N2CC[C@H](Oc3ccc(C4CC4)cc3)C2=O)ccc1OCCN1CC[C@@H](F)C1` [Example 70] it was 1 nM; in that of `Cc1cc(N2CC[C@H](Oc3ccc(C4CC4)cc3)C2=O)ccc1OCCN1CCC(F)(F)C1` [Example 71], 7 nM.

Broadly, the Ki is a dissociation constant, usually derived from enzyme kinetics or from competition with a known ligand. Low readings indicate a stronger hold on the target, high ones a looser hold on the target.
